Results published in ChEMBL document CHEMBL4354845, “Discovery and Structure-Activity Relationships of Nociceptin Receptor Partial Agonists That Afford Symptom Ablation in Parkinson's Disease Models” (J Med Chem, 2020).

Amino acid sequences for entries named in this document (tags omitted). A change or cut given only in a name is not applied to a line headed by its entry.
UniProt P41146: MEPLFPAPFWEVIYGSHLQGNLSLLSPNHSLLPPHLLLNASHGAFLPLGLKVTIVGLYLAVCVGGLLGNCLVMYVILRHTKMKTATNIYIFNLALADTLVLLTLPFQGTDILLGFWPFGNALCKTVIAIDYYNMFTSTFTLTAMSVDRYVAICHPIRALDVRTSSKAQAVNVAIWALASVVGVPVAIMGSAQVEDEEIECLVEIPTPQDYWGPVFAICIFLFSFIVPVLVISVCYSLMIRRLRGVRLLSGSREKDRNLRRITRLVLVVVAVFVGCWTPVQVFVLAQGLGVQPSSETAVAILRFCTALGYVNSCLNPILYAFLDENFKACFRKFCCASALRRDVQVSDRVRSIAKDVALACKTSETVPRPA
UniProt P35372, whole entry, looked up: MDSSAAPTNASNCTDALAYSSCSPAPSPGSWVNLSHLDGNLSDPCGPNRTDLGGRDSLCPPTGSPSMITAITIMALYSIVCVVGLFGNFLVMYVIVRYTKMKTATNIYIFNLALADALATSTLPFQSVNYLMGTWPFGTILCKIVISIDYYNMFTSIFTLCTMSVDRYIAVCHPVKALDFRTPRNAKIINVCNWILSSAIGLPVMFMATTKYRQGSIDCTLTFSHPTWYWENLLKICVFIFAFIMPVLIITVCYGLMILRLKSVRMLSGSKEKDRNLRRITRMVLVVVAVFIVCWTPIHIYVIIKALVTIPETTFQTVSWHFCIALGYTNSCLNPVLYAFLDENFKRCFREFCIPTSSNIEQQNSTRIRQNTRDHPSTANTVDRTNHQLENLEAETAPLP

Assays:
[1] = target: Nociceptin receptor (Homo sapiens) (UniProt P41146); test: Agonist activity at human NOP expressed in CHO cell membrane incubated for 60 mins by [35S]GTPgammaS binding assay relative to N/OFQ
[2] = target: Mu-type opioid receptor (Homo sapiens) (UniProt P35372); test: Agonist activity at human MOP expressed in CHO cell membrane incubated for 60 mins by [35S]GTPgammaS binding assay relative to DAMGO
[3] = organism: Homo sapiens; test: Selectivity index, ratio of Ki for human MOP expressed in CHO cell membrane to Ki for human NOP expressed in CHO cell membrane
[4] = organism: Homo sapiens; test: Selectivity index, ratio of Ki for human DOP expressed in CHO cell membrane to Ki for human NOP expressed in CHO cell membrane
[5] = organism: Homo sapiens; test: Selectivity index, ratio of Ki for human KOP expressed in CHO cell membrane to Ki for human NOP expressed in CHO cell membrane

SMILES | Activity [1] [%] | Activity [2] [%] | Ratio Ki [3] | Ratio Ki [4] | Ratio Ki [5]
CC(C)[C@H]1CC[C@@H](N2CCC(n3cc(CN4CCC(O)CC4)c4ccccc43)CC2)CC1 | 10.6 | – | – | – | –
CC(C)[C@H]1CC[C@@H](N2CCC(n3cc(CN4CC[C@@H](O)C4)c4ccccc43)CC2)CC1 | 69.9 | – | – | – | –
CC(C)[C@H]1CC[C@@H](N2CCC(n3cc(CCN)c4ccccc43)CC2)CC1.Cl.Cl | 27.8 | – | – | – | –
CC(C)[C@H]1CC[C@@H](N2CCC(n3cc(/C=N/O)c4ccccc43)CC2)CC1 | 85.9 | 37.5 | 25 | – | –
CC(C)[C@H]1CC[C@@H](N2CCC(n3cc(CCCNC(N)=S)c4ccccc43)CC2)CC1 | 34.5 | – | – | – | –
CC(C)[C@H]1CC[C@@H](N2CCC(n3cc(CN4CC(O)C4)c4ccccc43)CC2)CC1 | 34.3 | – | – | – | –
CC(C)[C@H]1CC[C@@H](N2CCC(n3cc(CNC(N)=S)c4ccccc43)CC2)CC1 | 51.2 | 9.8 | – | – | –
CC(C)[C@H]1CC[C@@H](N2CCC(n3cc(CCCN)c4ccccc43)CC2)CC1 | 18.6 | 15.7 | – | – | –
CC(C)[C@H]1CC[C@@H](N2CCC(n3cc(CNC(=O)CCCCCN)c4ccccc43)CC2)CC1 | 37.7 | – | – | – | –
CC(C)[C@H]1CC[C@@H](N2CCC(N3CCc4ccccc43)CC2)CC1 | 33 | – | > 40 | > 40 | > 40
CC(C)[C@H]1CC[C@@H](N2CCC(n3cc(CN4CCCC4)c4ccccc43)CC2)CC1 | 87.9 | – | > 200 | > 200 | > 200
CC(C)[C@H]1CC[C@@H](N2CCC(n3cc(CO)c4ccccc43)CC2)CC1 | 18.9 | – | – | – | –
CC(C)[C@H]1CC[C@@H](N2CCC(n3cc(CN)c4ccccc43)CC2)CC1 | 5.7 | 11.8 | 20 | – | –
CCNCC(=O)NCc1cn(C2CCN([C@H]3CC[C@@H](C(C)C)CC3)CC2)c2ccccc12 | 15.9 | – | – | – | –
CC(C)[C@H]1CC[C@@H](N2CCC(n3cc(CCNC(N)=S)c4ccccc43)CC2)CC1 | 5.6 | – | – | – | –
CC(C)[C@H]1CC[C@@H](N2CCC(n3cc(CN(C)C)c4ccccc43)CC2)CC1 | 28.1 | – | – | – | –
CC(C)[C@H]1CC[C@@H](N2CCC(n3ccc4ccccc43)CC2)CC1 | 29.3 | 16.3 | > 40 | > 40 | > 40
